From US7498127 (dated 2009)

Biological target: T1, PLZF protein derivative with deletion of a region of Zn6 to Zn7 (UniProt Q05516 1-673)
T1 construct: Deletion construct; also called FLAG-tagged PLZF protein derivative 8); not shown: FLAG synthetic octapeptide tag (Sigma-Aldrich)
T1 sequence (looked up): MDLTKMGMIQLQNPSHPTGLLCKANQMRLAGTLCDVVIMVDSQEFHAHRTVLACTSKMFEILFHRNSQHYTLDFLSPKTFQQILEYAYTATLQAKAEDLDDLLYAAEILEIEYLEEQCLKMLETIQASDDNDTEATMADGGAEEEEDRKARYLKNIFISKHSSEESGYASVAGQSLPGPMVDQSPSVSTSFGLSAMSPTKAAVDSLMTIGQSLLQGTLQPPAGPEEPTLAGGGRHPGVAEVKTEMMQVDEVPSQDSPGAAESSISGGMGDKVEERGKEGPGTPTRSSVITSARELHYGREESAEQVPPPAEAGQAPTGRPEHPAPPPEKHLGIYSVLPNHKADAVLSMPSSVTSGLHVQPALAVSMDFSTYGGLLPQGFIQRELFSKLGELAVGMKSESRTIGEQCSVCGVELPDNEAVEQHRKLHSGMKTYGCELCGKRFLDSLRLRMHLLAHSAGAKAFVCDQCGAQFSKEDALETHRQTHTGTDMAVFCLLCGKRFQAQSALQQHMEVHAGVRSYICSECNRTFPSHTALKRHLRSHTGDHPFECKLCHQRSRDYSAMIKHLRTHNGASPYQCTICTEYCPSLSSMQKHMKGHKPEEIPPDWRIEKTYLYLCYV
Assay: GST pull-down, anti-FLAG immunoblot

binding result: no binding
B1: GST binding HB-EGF remaining fragment (other, UniProt P08515 1-218, looked up)
chain: MSPILGYWKIKGLVQPTRLLLEYLEEKYEEHLYERDEGDKWRNKKFELGLEFPNLPYYIDGDVKLTQSMAIIRYIADKHNMLGGCPKERAEISMLEGAVLDIRYGVSRIAYSKDFETLKVDFLSKLPEMLKMFEDRLCHKTYLNGDHVTHPDFMLYDALDVVLYMDPMCLDAFPKLVCFKKRIEAIPQIDKYLKSSKYIAWPLQGWQATFGGGDHPPKRYHRRGGYDVENEEKVKLGMTNSH
notes: also called remaining fragments of HB-EGF
